Results on two molecules are retold here after PubChem BioAssay AID624156 (Broad Institute, 2012).

The entries are a selection whose mix differs from that of the whole data set. Active and inactive are the calls of the source. Cut-off read from the data, not from the text of the source: active = ROS induction above about 79% (passing the limit was not always enough); inconclusive = no clear call, values can overlap the other calls.

The nature of this assay: ROS inducers in U2OS cancer cells, primary screen, cell-based, H2DCF-DA fluorescence (AID 624156).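 Note: 0% = DMSO vehicle median and 100% = reference compound median.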 The settings on record: at 10 µM, stronger effect = higher value.
With `FC(F)(F)Oc1ccc(NC2CCNCC2)cc1`, the ROS induction (% of piperlongumine) was inactive: -2.47%.

On to `CC(C)(C)OC(=O)N1CCC(Nc2ccc(OC(F)(F)F)cc2)CC1`, for which the ROS induction (% of piperlongumine) is inactive: 8.07%.
